Assay results: patent US9340590B2 (priority 2011, dated 2016)

Amino acid sequences for entries named in this document (tags omitted).
UniProt P35499, whole entry, looked up: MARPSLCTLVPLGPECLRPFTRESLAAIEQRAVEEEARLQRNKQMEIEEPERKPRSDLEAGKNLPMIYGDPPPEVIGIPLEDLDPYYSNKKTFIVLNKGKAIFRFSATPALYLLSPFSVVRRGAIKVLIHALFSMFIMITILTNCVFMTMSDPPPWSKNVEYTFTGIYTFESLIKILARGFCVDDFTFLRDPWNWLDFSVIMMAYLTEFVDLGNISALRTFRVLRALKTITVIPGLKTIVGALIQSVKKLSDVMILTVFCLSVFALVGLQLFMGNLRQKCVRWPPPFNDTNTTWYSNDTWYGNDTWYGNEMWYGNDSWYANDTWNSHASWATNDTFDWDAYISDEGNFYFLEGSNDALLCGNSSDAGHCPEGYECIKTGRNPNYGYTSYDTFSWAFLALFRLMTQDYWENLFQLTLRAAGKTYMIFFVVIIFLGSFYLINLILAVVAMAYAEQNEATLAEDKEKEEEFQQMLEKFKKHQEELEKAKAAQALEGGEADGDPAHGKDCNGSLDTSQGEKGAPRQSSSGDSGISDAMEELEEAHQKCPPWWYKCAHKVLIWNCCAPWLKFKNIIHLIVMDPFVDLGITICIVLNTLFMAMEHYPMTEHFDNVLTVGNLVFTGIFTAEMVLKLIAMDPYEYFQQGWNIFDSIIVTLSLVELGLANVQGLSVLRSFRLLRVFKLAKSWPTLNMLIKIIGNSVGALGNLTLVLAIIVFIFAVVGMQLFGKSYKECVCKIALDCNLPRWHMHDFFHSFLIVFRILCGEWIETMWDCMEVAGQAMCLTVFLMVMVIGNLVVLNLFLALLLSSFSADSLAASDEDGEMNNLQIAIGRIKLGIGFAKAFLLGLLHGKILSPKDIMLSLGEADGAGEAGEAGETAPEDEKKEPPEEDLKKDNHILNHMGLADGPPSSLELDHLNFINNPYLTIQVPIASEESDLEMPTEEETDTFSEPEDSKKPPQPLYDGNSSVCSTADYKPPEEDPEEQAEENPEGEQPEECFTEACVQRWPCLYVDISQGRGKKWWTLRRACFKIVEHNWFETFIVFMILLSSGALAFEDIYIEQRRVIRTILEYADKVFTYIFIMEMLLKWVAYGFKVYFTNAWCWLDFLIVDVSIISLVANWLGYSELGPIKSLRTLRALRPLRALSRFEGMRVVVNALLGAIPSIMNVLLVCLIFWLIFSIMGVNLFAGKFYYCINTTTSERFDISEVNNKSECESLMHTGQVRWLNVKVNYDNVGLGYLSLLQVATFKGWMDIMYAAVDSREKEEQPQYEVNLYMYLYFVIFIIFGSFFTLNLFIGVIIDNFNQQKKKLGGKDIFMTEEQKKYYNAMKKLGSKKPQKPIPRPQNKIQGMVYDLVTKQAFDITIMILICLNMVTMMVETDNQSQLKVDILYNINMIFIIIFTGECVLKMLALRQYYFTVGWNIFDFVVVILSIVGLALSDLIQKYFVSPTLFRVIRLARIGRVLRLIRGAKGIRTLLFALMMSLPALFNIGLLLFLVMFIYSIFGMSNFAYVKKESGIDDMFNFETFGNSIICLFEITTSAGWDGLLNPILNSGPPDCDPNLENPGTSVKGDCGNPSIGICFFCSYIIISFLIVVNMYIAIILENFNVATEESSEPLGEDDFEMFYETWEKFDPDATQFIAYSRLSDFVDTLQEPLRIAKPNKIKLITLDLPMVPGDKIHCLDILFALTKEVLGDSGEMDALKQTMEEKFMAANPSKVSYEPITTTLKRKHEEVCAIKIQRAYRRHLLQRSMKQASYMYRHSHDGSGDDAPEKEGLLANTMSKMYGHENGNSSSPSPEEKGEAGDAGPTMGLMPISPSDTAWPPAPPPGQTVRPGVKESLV
UniProt Q14524, whole entry, looked up: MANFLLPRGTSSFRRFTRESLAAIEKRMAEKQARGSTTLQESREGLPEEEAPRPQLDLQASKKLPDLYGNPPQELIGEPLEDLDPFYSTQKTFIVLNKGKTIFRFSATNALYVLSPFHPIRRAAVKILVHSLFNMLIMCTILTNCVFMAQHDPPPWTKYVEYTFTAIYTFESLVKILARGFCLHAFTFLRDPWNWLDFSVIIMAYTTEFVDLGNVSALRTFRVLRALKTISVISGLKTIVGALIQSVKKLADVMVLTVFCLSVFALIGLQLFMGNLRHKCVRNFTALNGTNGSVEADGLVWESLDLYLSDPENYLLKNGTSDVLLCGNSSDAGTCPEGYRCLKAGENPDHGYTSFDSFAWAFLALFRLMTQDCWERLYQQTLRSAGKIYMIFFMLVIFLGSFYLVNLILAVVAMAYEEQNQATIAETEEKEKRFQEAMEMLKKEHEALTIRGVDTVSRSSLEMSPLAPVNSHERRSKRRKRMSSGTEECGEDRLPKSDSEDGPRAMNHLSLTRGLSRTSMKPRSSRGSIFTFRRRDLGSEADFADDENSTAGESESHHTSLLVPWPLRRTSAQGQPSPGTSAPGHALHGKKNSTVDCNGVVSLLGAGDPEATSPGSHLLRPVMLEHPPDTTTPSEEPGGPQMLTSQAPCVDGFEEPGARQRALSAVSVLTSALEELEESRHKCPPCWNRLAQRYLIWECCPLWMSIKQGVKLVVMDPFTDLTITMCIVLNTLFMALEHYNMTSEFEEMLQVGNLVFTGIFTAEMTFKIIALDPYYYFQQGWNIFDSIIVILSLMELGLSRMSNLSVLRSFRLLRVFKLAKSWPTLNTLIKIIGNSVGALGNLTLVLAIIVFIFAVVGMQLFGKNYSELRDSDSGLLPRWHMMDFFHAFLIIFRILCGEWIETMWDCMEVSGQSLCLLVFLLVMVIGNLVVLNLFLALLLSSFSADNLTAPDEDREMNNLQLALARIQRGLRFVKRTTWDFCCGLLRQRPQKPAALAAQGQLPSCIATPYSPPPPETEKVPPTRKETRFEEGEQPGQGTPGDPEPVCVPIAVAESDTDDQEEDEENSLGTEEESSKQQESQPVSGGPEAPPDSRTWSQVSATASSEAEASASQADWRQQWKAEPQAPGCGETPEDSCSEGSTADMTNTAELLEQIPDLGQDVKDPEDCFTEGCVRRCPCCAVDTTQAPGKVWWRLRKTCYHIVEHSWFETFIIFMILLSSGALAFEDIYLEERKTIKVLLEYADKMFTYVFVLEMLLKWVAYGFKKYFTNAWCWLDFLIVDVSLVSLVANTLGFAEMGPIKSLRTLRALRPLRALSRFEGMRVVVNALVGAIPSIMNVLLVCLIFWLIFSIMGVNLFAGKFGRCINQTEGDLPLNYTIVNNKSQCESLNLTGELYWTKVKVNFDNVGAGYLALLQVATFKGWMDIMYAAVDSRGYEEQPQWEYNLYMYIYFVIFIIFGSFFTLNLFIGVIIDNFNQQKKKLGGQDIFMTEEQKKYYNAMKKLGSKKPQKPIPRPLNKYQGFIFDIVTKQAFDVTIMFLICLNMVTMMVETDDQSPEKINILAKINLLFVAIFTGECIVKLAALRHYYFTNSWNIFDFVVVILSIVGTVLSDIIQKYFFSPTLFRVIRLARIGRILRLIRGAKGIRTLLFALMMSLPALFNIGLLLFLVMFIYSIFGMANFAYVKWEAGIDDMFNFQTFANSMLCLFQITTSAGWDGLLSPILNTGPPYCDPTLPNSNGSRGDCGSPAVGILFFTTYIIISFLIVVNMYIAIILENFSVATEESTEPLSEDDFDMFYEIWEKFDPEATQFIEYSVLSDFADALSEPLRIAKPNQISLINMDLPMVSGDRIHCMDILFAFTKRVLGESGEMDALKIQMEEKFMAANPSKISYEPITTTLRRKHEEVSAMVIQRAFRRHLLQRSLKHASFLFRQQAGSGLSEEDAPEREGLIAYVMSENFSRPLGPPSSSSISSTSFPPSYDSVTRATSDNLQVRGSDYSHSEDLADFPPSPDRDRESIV
UniProt Q9NY46, whole entry, looked up: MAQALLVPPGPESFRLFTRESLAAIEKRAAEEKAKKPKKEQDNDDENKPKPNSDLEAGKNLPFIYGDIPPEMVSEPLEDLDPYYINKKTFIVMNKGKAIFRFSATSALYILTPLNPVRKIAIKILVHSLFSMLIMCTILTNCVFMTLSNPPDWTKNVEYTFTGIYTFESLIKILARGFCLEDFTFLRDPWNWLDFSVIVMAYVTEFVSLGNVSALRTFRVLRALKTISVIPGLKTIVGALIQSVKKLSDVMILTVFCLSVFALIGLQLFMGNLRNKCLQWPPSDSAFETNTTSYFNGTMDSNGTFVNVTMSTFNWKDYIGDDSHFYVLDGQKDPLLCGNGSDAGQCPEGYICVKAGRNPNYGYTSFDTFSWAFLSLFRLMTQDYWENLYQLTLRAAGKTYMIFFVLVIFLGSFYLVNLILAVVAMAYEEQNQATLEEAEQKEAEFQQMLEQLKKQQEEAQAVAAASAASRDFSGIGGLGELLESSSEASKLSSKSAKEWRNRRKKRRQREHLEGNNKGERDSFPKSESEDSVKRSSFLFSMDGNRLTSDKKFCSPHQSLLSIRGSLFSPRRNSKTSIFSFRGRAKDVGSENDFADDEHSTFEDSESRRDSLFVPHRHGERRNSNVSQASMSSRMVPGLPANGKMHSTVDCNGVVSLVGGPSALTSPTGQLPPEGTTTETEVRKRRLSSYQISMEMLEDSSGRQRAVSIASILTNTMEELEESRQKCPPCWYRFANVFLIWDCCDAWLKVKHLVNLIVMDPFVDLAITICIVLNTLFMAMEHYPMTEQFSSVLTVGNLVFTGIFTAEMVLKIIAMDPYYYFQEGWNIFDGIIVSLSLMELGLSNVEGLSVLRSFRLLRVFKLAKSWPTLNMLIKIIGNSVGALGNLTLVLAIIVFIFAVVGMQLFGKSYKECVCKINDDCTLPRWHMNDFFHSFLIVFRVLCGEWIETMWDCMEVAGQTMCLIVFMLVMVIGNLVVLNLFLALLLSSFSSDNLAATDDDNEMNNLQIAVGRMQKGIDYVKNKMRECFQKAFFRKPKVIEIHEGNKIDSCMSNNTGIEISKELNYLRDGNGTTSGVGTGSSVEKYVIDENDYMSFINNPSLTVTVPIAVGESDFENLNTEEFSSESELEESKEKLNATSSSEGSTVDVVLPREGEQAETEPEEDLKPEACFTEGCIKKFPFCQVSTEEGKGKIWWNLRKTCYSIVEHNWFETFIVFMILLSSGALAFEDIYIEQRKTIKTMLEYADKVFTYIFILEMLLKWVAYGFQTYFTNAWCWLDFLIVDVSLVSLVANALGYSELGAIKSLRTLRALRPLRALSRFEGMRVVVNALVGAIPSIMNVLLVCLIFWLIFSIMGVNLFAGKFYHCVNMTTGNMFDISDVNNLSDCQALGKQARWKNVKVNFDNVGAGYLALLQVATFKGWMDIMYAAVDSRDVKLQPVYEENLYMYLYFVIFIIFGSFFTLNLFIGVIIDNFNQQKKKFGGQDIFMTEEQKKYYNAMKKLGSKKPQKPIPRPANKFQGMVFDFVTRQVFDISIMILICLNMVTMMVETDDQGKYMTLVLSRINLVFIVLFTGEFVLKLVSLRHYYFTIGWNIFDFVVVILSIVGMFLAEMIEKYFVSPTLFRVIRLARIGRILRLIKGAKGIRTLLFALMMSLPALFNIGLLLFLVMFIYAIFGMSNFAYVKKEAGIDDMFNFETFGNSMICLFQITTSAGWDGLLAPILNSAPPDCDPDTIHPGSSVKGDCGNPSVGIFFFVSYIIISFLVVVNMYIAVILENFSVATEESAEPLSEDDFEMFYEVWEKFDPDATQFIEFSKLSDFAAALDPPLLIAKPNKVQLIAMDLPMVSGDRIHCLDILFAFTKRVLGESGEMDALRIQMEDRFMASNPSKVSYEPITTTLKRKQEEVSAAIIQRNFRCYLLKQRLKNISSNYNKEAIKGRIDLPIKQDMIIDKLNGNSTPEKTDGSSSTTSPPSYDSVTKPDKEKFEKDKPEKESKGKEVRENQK

Assays:
Experiment in all cases: cell-based
[1] = target: hNav1.4 (Homo sapiens, UniProt P35499); details: IonWorks Quattro, use-dependent block, read-out: IWQ Use Nav1.4
[2] = target: hNav1.5 (Homo sapiens, UniProt Q14524); details: IonWorks Quattro, use-dependent block, read-out: IWQ Use Nav1.5
[3] = target: hNav1.7 (Homo sapiens, UniProt Q15858)
[4] = target: hNav1.3 (Homo sapiens, UniProt Q9NY46)

## CC(C)C[C@@H]1NC(=O)[C@@H](NC(=O)[C@@H](N)CC(=O)O)CSSC[C@@H]2NC(=O)[C@@H]3CSSC[C@@H](C(=O)N[C@@H](CCCCN)C(=O)N[C@@H](Cc4ccc(O)cc4)C(=O)N[C@@H](CCCCN)C(=O)N[C@@H](CC(C)C)C(=O)N[C@@H](Cc4c[nH]c5ccccc45)C(=O)O)NC(=O)[C@H](Cc4c[nH]c5ccccc45)NC(=O)[C@H](CCCCN)NC(=O)[C@H](CC(=O)O)NC(=O)[C@H](CCCNC(=N)N)NC(=O)[C@H](CCCNC(=N)N)NC(=O)[C@H](CC(N)=O)NC(=O)[C@H](CSSC[C@H](NC(=O)CNC(=O)[C@H](CCCCN)NC(=O)[C@H](Cc4ccccc4)NC(=O)[C@H](Cc4c[nH]c5ccccc45)NC(=O)CNC1=O)C(=O)N[C@@H](CC(=O)O)C(=O)N1CCC[C@H]1C(=O)N[C@@H](CC(=O)O)C(=O)N[C@@H](CC(N)=O)C(=O)N[C@@H](CC(=O)O)C(=O)N[C@@H](CCCCN)C(=O)N3)NC(=O)[C@H](CCCCN)NC(=O)[C@H](Cc1ccc(O)cc1)NC(=O)CNC(=O)[C@H](CCC(=O)O)NC2=O [compound 472]
[1]
  IC50: 4100 nM
[2]
  IC50: 7300 nM
[3]; IonWorks Quattro, use-dependent block, hNav1.7, read-out: IWQ Use Nav1.7
  IC50: 1300 nM
[3]; ratio of IWQ Use values, Nav1.4 over Nav1.7
  Nav1.4/Nav1.7: 3.2
[4]; IonWorks Quattro, use-dependent block, hNav1.3, read-out: IWQ Use Nav1.3
  IC50: 540 nM
[4]; ratio of IWQ Use values, Nav1.4 over Nav1.3
  Nav1.4/Nav1.3: 7.6
[4]; ratio of IWQ Use values, Nav1.7 over Nav1.3
  Nav1.7/Nav1.3: 2.4
